## Melting point values, as collected for the OPERA models

Values as listed in the OPERA 2.9 repository of K. Mansouri.

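The OPERA project collected these measurements from public sources as training and test data for property models. The files give a single number for a compound and property, which may rest on several reports. How each value was measured is not recorded, so precision varies. The measured form (salt, isomer or mixture) is not always the one drawn. Unmarked limits or estimates from the upstream databases cannot be ruled out.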

The melting point is given in degrees Celsius. Cells with "n/a" have no entry in this list. The databases behind each value are named after "via".

SMILES	name	mp (°C)	via
O=C(O)c1ccc(N2C(=O)CSC2=S)cc1	4-(4-Oxo-2-thioxo-thiazolidin-3-yl)-benzoic acid	282	OCHEM
COc1cc(/N=N/c2ccc(S(=O)(=O)[O-])cc2)c(C)cc1/N=N/c1c(S(=O)(=O)[O-])cc2cc(Nc3ccccc3)ccc2c1O.[Na+].[Na+]	C.I. Direct Violet 9, disodium salt	299.2	eChemPortal
COC(=O)c1ccc(Br)c(C)c1	Methyl 4-bromo-3-methylbenzoate	41.5	OCHEM
CCN(CC)c1ccc(C=C2OC(=NC3CCCCC3)N(C3CCCCC3)C2=O)c(OC)c1	n/a	132.1	eChemPortal
NS(=O)(=O)c1cccnc1Cl	2-chloropyridine-3-sulfonamide	184	OCHEM
Cc1nn(C2CCS(=O)(=O)C2)c(C)c1C=O (centres undefined)	n/a	123	OCHEM
CC(C)C(=O)OCc1ccccc1	Benzyl 2-methylpropanoate	-35.43	eChemPortal
NNc1ccc(Cl)cc1	4-Chlorophenylhydrazine	90	eChemPortal
CC(C)CCCCCCCCCCCCCCC(=O)OCC(O)COCC(O)COC(=O)CCCCCCCCCCCCCCC(C)C (centres undefined)	Di(isooctadecanoic) acid, diester with oxydi(propanedio	-10	eChemPortal
O=C1CSC(=S)N1c1ccc(F)cc1	3-(4-Fluorophenyl)-2-sulfanylidene-1,3-thiazolidin-4-one	138	OCHEM
Clc1nnc(-c2ccccc2)c2ccccc12	1-chloro-4-phenylphthalazine	157	OCHEM
CC1(C)CC[C@]2(C(=O)O)CC[C@]3(C)C(=CC[C@@H]4[C@@]5(C)C[C@@H](O)[C@H](O)C(C)(C)[C@@H]5CC[C@]43C)[C@@H]2C1	Maslinic acid	249.5	PubChem
CCOc1ccc(NC(C)=O)cc1N	3-Amino-4-ethoxyacetanilide	126.1	PubChem
CC1(C)O[C@](C)(C(=O)O)CC[C@@H]1C(=O)O (relative stereo)	n/a	208	OCHEM
CC1(C)CC[C@H]2O[C@]23C(C)(C)[C@H]2CC[C@@]13C2	n/a	-1	eChemPortal
COc1cc(NC(C)CCCN)c2ncccc2c1.O=P(O)(O)O.O=P(O)(O)O (centres undefined)	Primaquine diphosphate	198	OCHEM
CCc1nccnc1C	2-Ethyl-3-methylpyrazine	-33.1	eChemPortal
Nc1cc2c(cc1[N+](=O)[O-])OCCCO2	8-nitro-3,4-dihydro-2H-1,5-benzodioxepin-7-amine	75	OCHEM
O=c1nc[nH]c2ncccc12	4-Hydroxypyrido (2,3-d)pyrimidine	250	OCHEM
CCC1OC(C)=C(O)C1=O (centres undefined)	3(2H)-Furanone, 2-ethyl-4-hydroxy-5-methyl-	-10	eChemPortal
O=C(O)c1ccccc1P(c1ccccc1)c1ccccc1	Benzoic acid, 2-(diphenylphosphino)-	179.4	OCHEM, eChemPortal
Cc1cc(OCC(=O)O)ccc1C(C)C	(4-Isopropyl-3-methyl-phenoxy)-acetic acid	119	OCHEM
NC(=O)c1ccc[n+](Cc2ccccc2)c1.[Cl-]	N-Benzylniacinamide, chloride	242.5	eChemPortal
N#CCC(=O)NCCc1ccccc1	2-cyano-N-(2-phenylethyl)acetamide	92	OCHEM
Cc1[nH]c(=S)[nH]c(=O)c1CCO	n/a	264	OCHEM
CCCCCCCCCCCCCCCCCC(=O)OCC1CCCO1 (centres undefined)	Tetrahydrofurfuryl stearate	22	OCHEM
O=C(O)c1cc(S(=O)(=O)Cl)ccc1Br	2-Bromo-5-(chlorosulfonyl)benzoic acid	116	OCHEM
CCN(CC)c1ccc(N=Nc2c(Cl)cc([N+](=O)[O-])cc2[N+](=O)[O-])c(NC(C)=O)c1	n/a	172	eChemPortal
C[N+](C)(Cc1ccccc1)Cc1ccccc1.[Cl-]	n/a	91	eChemPortal
Cc1cc(C)c(C)c(S(=O)(=O)NCC(=O)O)c1C	(2,3,5,6-Tetramethyl-benzenesulfonylamino)-acetic acid	166.5	OCHEM
CCOc1ccc(C[C@@H](CNCCN)NC(=O)OCc2ccccc2)cc1.Cl.Cl	n/a	220	eChemPortal
CCOC(=O)c1cn(C2CC2)c2cc(F)c(F)cc2c1=O	n/a	229.2	eChemPortal
Cc1cc(C)c2nc(Cl)cc(C)c2c1	2-chloro-4,6,8-trimethylquinoline	130	OCHEM